Ab-14 heavy chain CDR variants: yeast mating affinities

The measurements come from Li et al. 2023 (doi:10.1038/s41467-023-39022-2) through the FLAb antibody collection.

Binding partner: SARS-CoV-2 spike HR2 peptide, sequence PDVDLGDISGINAS.

The variants keep the light chain, the linker and the frameworks of Ab-14 (scFv order VH, three GGGGS repeats, VL).
VH: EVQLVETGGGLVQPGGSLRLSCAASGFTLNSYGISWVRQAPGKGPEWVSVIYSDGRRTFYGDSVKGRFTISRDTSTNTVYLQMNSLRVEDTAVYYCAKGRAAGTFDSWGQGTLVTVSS
VL: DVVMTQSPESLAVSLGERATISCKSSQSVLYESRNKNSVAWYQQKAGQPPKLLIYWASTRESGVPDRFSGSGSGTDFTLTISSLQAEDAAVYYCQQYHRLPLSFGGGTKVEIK

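This is the validation round: designs drawn from the data on random variants, tested in the same kind of assay. Group labels follow the data file (Ctrl: baseline library sampled from a position-specific scoring matrix, with some repeated check sequences; Rand: our label for a block that the file lists under HC and that is probably the random mutants of the ten best first-round binders; En: ensemble of fine-tuned language models; GP: Gaussian process model; GPLM: also part of the Gaussian process libraries; HC: hill climbing; Gen: genetic algorithm; Gibbs: Gibbs sampling; a sequence that several methods proposed may carry one label only). In AlphaSeq, yeast of one mating type display the scFv and yeast of the other type display the target. Mating (16 h, 30 °C) was followed by selection of diploids and sequencing of their barcodes. The ratio of observed to expected reads was calibrated, replicate by replicate, on BCL2-family standards whose Kd was known from biolayer interferometry. Mating was done six times.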

The parent's heavy chain CDRs are GFTLNSYGIS, VIYSDGRRTFYGDSVK, GRAAGTFDS; each variant's own CDRs replace them letter for letter. Variants here have at most six changes. The Kd shown is the geometric mean over detected replicates; a lower Kd is a better binder. An entry "nd" has no value in the source: the pair was not observed among the diploids in any replicate. This suggests poor binding but is not conclusive.

With GFTLNSYGVS | VIYACGRRTFYGDSVK | GRAAVTNKS [Rand] the result was nd (0 of 6 replicates; controls 0 of 18). With GFDLNEYGIS | VIYADGRRTFYADSVK | GNAAGTFDL [En_HC] the result was 320 pM (6 of 6 replicates; controls 0 of 18). With GFPLNSYGIS | VIYSDGRRTFYGDSVK | GRAAGTFDT [Ctrl] the result was 17 nM (6 of 6 replicates; controls 0 of 18). Variant GFTINSYGIS | VIYSDGRRTFYGDSVK | GRLAGTFDS [Ctrl] showed 160 nM (5 of 6 replicates; controls 1 of 18). Variant GFTLESYGIS | VIYSDGRRTFYGDAVK | GRTAGTFDS [GPLM_Gibbs] showed 720 pM (6 of 6 replicates; controls 0 of 18).

Variant GFDLNSYGIS | VIYSDGRRTFYGDHVK | GRTAGTFDA [GP_Gibbs] gave 6.5 nM (6 of 6 replicates; controls 1 of 18). For GFTLNSYGIS | VIYRDGRRTFYDDDVK | GQLAGTFDS [Rand], the assay gave nd (0 of 6 replicates; controls 0 of 18). For GFTLNSYGIS | VIYSDGRRTFYQDSVK | GRAGGTFDS [Rand], the assay gave 360 nM (3 of 6 replicates; controls 0 of 18). Variant GFTLNEYGIS | VIYADGRRTFYGDSVK | GRAAGTFKM [GP_HC] gave nd (0 of 6 replicates; controls 1 of 18). For GFDLNSYGIS | VIYSDGRRTFYADSVK | GRAAGTFDT [GPLM_HC], the assay gave 2.9 nM (6 of 6 replicates; controls 0 of 18).

Variant GFTLNSYGIS | VIYSDGRRTFYSDSVK | GRRKKTFDL [Ctrl] showed 310 nM (1 of 6 replicates; controls 1 of 18). With GFTLNSYGIS | VIYSDGRRTFYTDDVK | GRIAGTPDS [Ctrl] the result was nd (0 of 6 replicates; controls 0 of 18). For GFTLESYGIS | VIYADGRRTFYGDSVK | GRAAGTFDW [GP_Gibbs], the assay gave 130 nM (5 of 6 replicates; controls 0 of 18). With GFTLNSYGIS | VIYSDGRRTFYGDSVK | GRAAGFFES [Ctrl] the result was 6.3 nM (6 of 6 replicates; controls 0 of 18). For GFTLNSYGIS | VIYSDGRRTFYGDNVK | GDAAITFKS [Ctrl], the assay gave nd (0 of 6 replicates; controls 0 of 18).

With GFQLNSYGIS | VIYSDGRRTFYVDSVK | GRQAGTFDT [GP_Gibbs] the result was nd (0 of 6 replicates; controls 1 of 18). Variant GFTLNKYGIS | VIYSDGRRTQYGDSVK | GPAAKTFDQ [Ctrl] gave nd (0 of 6 replicates; controls 0 of 18). For GFTLNEYGIS | VIYSDGRRTFYGLSKK | GRAAVTFDQ [Rand], the assay gave nd (0 of 6 replicates; controls 0 of 18). Variant GFTLNSYGIS | VIYADGRRTFYGDKVK | GLAAGTNKS [Rand] gave nd (0 of 6 replicates; controls 0 of 18). Variant GFTLNSYGIS | VIYSDGRRNFYQDSVK | GRAAGTFDS [Ctrl] showed nd (0 of 6 replicates; controls 0 of 18).

Variant GFDLNSYGIS | VIYSDGRRTFYSDSVK | GKAAGTFDW [GP_Gibbs] gave 7.2 nM (6 of 6 replicates; controls 0 of 18). Variant HFQLNSYGIS | VIYSDGRRTFYADSVK | GRTAGTFDS [GPLM_Gibbs] showed 15 nM (6 of 6 replicates; controls 0 of 18). Variant GFDLNSYGIS | VIYSDGRRSFYADSVK | GRTAGTFDS [GPLM_Gen] gave 1.0 nM (6 of 6 replicates; controls 2 of 18). Variant GFNLNEYGIS | VIYSDGRRTFYTDSVK | GRTAGTFDS [GPLM_HC] showed nd (0 of 6 replicates; controls 0 of 18). For GFTLNSYGIS | VIYSDGRRTFYGDSVK | GQLAGTFDR [GPLM_HC], the assay gave nd (0 of 6 replicates; controls 0 of 18).

Variant GFNLNSYGIS | VIYSDGRRTFYGDSVK | GQEAGTFDR [GP_Gibbs] gave 1.8 nM (6 of 6 replicates; controls 0 of 18). Variant GFTFNSYGIS | VIYSDGRRTFYGDSVK | GRLAGTFDS [Ctrl] gave nd (0 of 6 replicates; controls 0 of 18). With GFWLNSYGIS | VIYADGRRTFYGDSVK | GRAAGTFCS [Ctrl] the result was nd (0 of 6 replicates; controls 0 of 18). Variant GLTMNSYGIS | VIYSDGQRTFYGDSVK | GRAAGTFLS [Ctrl] showed 120 nM (1 of 6 replicates; controls 0 of 18). Variant GFTLNEYGIS | VIYADGRRTFYGDSVK | GMAAGKFDS [Ctrl] gave nd (0 of 6 replicates; controls 1 of 18).

For GFTLNSYGIS | VIYADCRRTFYGDQVK | GENAGDFDS [Ctrl], the assay gave nd (0 of 6 replicates; controls 0 of 18). Variant GFTLNSYGIS | VIYSDGRRTFYGDSVK | GRAAMTFDS [Ctrl] gave nd (0 of 6 replicates; controls 0 of 18). Variant GFTLNSYGIS | VIYSDGRRTFYGDSVK | GRAAGTFDH [Ctrl] showed 1.4 nM (1 of 6 replicates; controls 0 of 18). Variant GFTLNEYGIS | VIYSDGRRTFYDDSVK | GRFAGTFDS [GPLM_HC] showed 2.8 nM (6 of 6 replicates; controls 0 of 18). Variant GFELNSYGIS | VIYSDGRRTFYGDSVK | GTTAGTFDL [GP_Gibbs] showed 760 pM (6 of 6 replicates; controls 0 of 18).

Variant GFTLNEYGIS | VIYSDGRRTFYGDSVK | GDAAGTFDS [Ctrl] gave 3.0 nM (6 of 6 replicates; controls 0 of 18). Variant GFNLNSYGIS | VIYSDGRRTFYVDSVK | GQTAGTFDS [GPLM_Gibbs] gave nd (0 of 6 replicates; controls 0 of 18). Variant GFNLNSYGIS | VIYSDGRRTFYQDNVK | GRTAGTFDS [GP_Gibbs] gave 7.0 nM (6 of 6 replicates; controls 0 of 18). With GFILNSYGIS | VIYSDGRRTFYDDSVK | GQEAGTFDS [GP_HC] the result was 93 nM (6 of 6 replicates; controls 2 of 18). Variant GFTLSSYGIS | VIYSDGRRTFYTDSVK | GGAAGTFDP [Ctrl] showed 220 nM (1 of 6 replicates; controls 0 of 18).

Variant GFSLNNYGIS | VIYSDGRRTFYCDAVK | GRTAGTFDS [GP_Gibbs] gave 240 nM (6 of 6 replicates; controls 0 of 18). Variant GFSLNSYGIS | VIYSDGRRTFYGDQVK | GKTAGTFDS [GPLM_Gen] gave nd (0 of 6 replicates; controls 0 of 18). For GFELNMYGIS | VIYSDGRRTFYHDSVK | GQAAGTFDS [GP_Gibbs], the assay gave 5.6 nM (6 of 6 replicates; controls 0 of 18).

3 of these entries, quoted again:

CDR-H1,CDR-H2,CDR-H3,group,Kd,replicates with signal,signal with controls
GFTLSSYGIS,VIYSDGRRTFYTDSVK,GGAAGTFDP,Ctrl,220 nM,1 of 6,0 of 18
GFWLNSYGIS,VIYADGRRTFYGDSVK,GRAAGTFCS,Ctrl,nd,0 of 6,0 of 18
GFNLNSYGIS,VIYSDGRRTFYGDSVK,GQEAGTFDR,GP_Gibbs,1.8 nM,6 of 6,0 of 18

The parent sequence was in this pool as ten entries: three were never detected, three once, and four in most replicates, with averages from 2.2 nM to 240 nM. The authors' rule: three or more of the six replicates give a measured affinity, fewer mean a poor binder. A sequence measured in both rounds can read differently, since the two assays cover different ranges. As a blank, each scFv also met three strains without target: over all heavy chain designs, 1% of these pairings were detected, typically at 120 nM and seldom below 7.0 nM. Also given: how often the same scFv was detected with the empty control strains.